ERAP1 HTS inh: blocks human ERAP1 aminopeptidase activity | recombinant ERAP1, Leu-AMC fluorescence, 60 min | inhibition, % at 10.7 µM | 340,000 compounds, 0.15% hits | AID 652197;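 active = mean replicate inhibition of at least 30%, or all replicates individually reaching that 30% level; inactive = mean below 30% and not every replicate reaching it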;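 note: 0% = neutral control wells and 100% = L-leucinethiol positive control wells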
MLL AF4-AF9 inh: inhibitors of human MLL-AF4/AF9 interaction. P42568. AlphaScreen, biotin-AF4 peptide binding to FLAG-AF9. inhibition, % at 10 µM. 350,000 compounds, 0.47% hits;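 active = every replicate reaching a set inhibition limit, whatever the replicate mean, cut at about 25% in these data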;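 note: 0% = plate neutral control median and 100% = total signal loss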
UUG fidelity: modulators of start codon recognition fidelity in yeast; AID 602363; activity score, % at 18.7 µM; S. cerevisiae UUG-firefly luciferase reporter, luminescence/redox ratio; 0.13% of 350,000 active;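 active = replicate mean at a twofold rise or more, about +100% in these data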;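 note: firefly luciferase made from a UUG start codon reports start codon fidelity; reporter light over untreated wells divided by growth signal over untreated wells; some hits fall short of that in this replicate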
ARNT-TACC3 inh: disruptors of human ARNT/TACC3 interaction; Q9Y6A5; AlphaScreen His-ARNT PAS-B/GST-TACC3 binding, luminescence; TACC3 fragment carries E629A point mutation; inhibition, % at 9.99 µM; 390,000 compounds, 0.66% hits;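 active = mean inhibition of replicates at least 50% and at least half of replicates each reaching 50%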;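 note: 0% = complete ARNT plus TACC3 wells and 100% = ARNT alone without TACC3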
E-selectin induc: E-selectin induction on HUVECs; HUVEC E-selectin immunofluorescence imaging; normalized: neutral wells 0, TNF-alpha wells 100; AID 686992; activation, % at 7.58 µM; 260,000 compounds, 0.37% hits; P16581;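 active = mean E-selectin-positive cell signal at least 10% of the positive control, reached in at least 60% of replicates, without over 20% cell loss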
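Read-out basis: % PE-positive cells; Test system: HUVEC primary endothelial cells; Technique: immunofluorescence imaging; Dosing: single-point compound dose.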
S100A4 MyoIIA: inhibitors of human S100A4 binding to myosin IIA peptide; inhibition, % at 10.7 µM; 360,000 compounds, 0.14% hits; S100A4/TAMRA-MyoIIA peptide fluorescence polarization; P26447; AID 652163;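 active = mean inhibition of at least 70% across replicates, with every replicate also reaching that level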
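Test system – S100A4 monomer (human) · Compound – single-point compound testing · Schedule – 5 min incubation before reading · Probe or stimulus – TAMRA-labelled myosin IIA heavy-chain peptide probe, 5 nM · Benchmarks – neutral control DMSO, positive control TFP · Medium – Calcium-containing HEPES buffer, pH 7.2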
Numbers without * were called inactive. In the library only some 1.3% were active in any assay of this set; here they are far more common.

`COc1ccc(C#Cc2ccc([C@@H]3[C@H](CO)N4CCCCN(Cc5ccccc5F)C[C@@H]34)cc2)cc1` gave ERAP1 HTS inh -2, MLL AF4-AF9 inh 31*, UUG fidelity -1, ARNT-TACC3 inh 34, E-selectin induc 0 and S100A4 MyoIIA -4.
For CCC(=O)NC[C@@H]1[C@H](c2ccccc2)[C@H](CO)N1C(=O)C1CC1 the results were ERAP1 HTS inh 1, MLL AF4-AF9 inh -4, UUG fidelity 33, ARNT-TACC3 inh 0, E-selectin induc 0 and S100A4 MyoIIA 21.
CN(C)CC(=O)N1CC2(C1)[C@@H](c1ccccc1)[C@H](CO)N2C(=O)C1CC1 was read as ERAP1 HTS inh -7, E-selectin induc 0 and S100A4 MyoIIA -2.
For CC1CN(S(=O)(=O)c2ccc(F)cc2)C(C)N1C(=O)N1CCOCC1 (stereo not drawn) the results were ERAP1 HTS inh 0, MLL AF4-AF9 inh 0, UUG fidelity -6, E-selectin induc 26* and S100A4 MyoIIA -1.
O=S(=O)(c1ccc(F)cc1)N1CCCN(c2nccc(C(F)(F)F)n2)CC1 was read as MLL AF4-AF9 inh -1, UUG fidelity -5, ARNT-TACC3 inh -2, E-selectin induc 30* and S100A4 MyoIIA -3.
COc1ccc(NC(=O)Nc2ccc3c(c2)[C@@H]2C[C@@H](CC(=O)N(C)C)O[C@@H](CO)[C@@H]2O3)cc1 was read as ERAP1 HTS inh 1, MLL AF4-AF9 inh 2, UUG fidelity 7, ARNT-TACC3 inh 2, E-selectin induc 0 and S100A4 MyoIIA 5.
Screening Cc1nnc(C)c2c(C)n(-c3ccccc3)c(C)c12 returned ERAP1 HTS inh -2, MLL AF4-AF9 inh 19, UUG fidelity -11, ARNT-TACC3 inh 6, E-selectin induc 0 and S100A4 MyoIIA -5.
`Cc1nnc(C)c2c(C)n(C(c3ccccc3)c3ccccc3)c(C)c12` gave ERAP1 HTS inh -3, MLL AF4-AF9 inh 30*, UUG fidelity 6, ARNT-TACC3 inh 6 and S100A4 MyoIIA -82.
For O=C(Nc1ccccc1)N[C@H]1CC[C@@H](CCNS(=O)(=O)c2cccc(F)c2)O[C@@H]1CO the results were ERAP1 HTS inh -2, MLL AF4-AF9 inh 0, UUG fidelity 5, ARNT-TACC3 inh -4, E-selectin induc 0 and S100A4 MyoIIA 9.
C#CCNC(=O)C1=C[C@H](C(C)(C)C)C[C@H](OCc2ccc(CO)cc2)O1 was read as ERAP1 HTS inh -2, MLL AF4-AF9 inh -3, UUG fidelity -12, ARNT-TACC3 inh 5, E-selectin induc 0 and S100A4 MyoIIA -2.
CC(C)(C)[C@@H]1C=C(C(=O)Nc2ccccc2)O[C@H](OCc2ccc(CO)cc2)C1 was read as ERAP1 HTS inh -3, MLL AF4-AF9 inh 1, UUG fidelity -2, ARNT-TACC3 inh -3, E-selectin induc 0 and S100A4 MyoIIA 98*.
`O=C(NC1CCCC1)N1CC(=O)N2[C@H](C1)[C@@H](c1ccc(/C=C/c3ccccc3)cc1)[C@@H]2CO` gave ERAP1 HTS inh -1, MLL AF4-AF9 inh 25*, E-selectin induc 1 and S100A4 MyoIIA -14.
For O=C(c1cccnc1)N1CC(=O)N2[C@H](CO)[C@@H](c3ccc(/C=C/c4ccccc4)cc3)[C@H]2C1 the results were ERAP1 HTS inh 2, MLL AF4-AF9 inh 27*, E-selectin induc 0 and S100A4 MyoIIA -2.
For CC(C)CC#Cc1ccc([C@H]2[C@H]3CN(C(=O)Cc4cccnc4)CC(=O)N3[C@H]2CO)cc1 the results were ERAP1 HTS inh 1, E-selectin induc 0 and S100A4 MyoIIA 107*.
COc1ccccc1NC(=O)N1CC(=O)N2[C@H](CO)[C@H](c3ccc(-c4ccc(F)cc4)cc3)[C@@H]2C1 was read as ERAP1 HTS inh 1, MLL AF4-AF9 inh 3, E-selectin induc 0 and S100A4 MyoIIA 110*.

Ordered by heavy-atom count (largest number first): some entries from above
COc1ccc(NC(=O)Nc2ccc3c(c2)[C@@H]2C[C@@H](CC(=O)N(C)C)O[C@@H](CO)[C@@H]2O3)cc1 was read as ERAP1 HTS inh 1, MLL AF4-AF9 inh 2, UUG fidelity 7, ARNT-TACC3 inh 2, E-selectin induc 0 and S100A4 MyoIIA 5.
For O=C(Nc1ccccc1)N[C@H]1CC[C@@H](CCNS(=O)(=O)c2cccc(F)c2)O[C@@H]1CO the results were ERAP1 HTS inh -2, MLL AF4-AF9 inh 0, UUG fidelity 5, ARNT-TACC3 inh -4, E-selectin induc 0 and S100A4 MyoIIA 9.
`Cc1nnc(C)c2c(C)n(C(c3ccccc3)c3ccccc3)c(C)c12` gave ERAP1 HTS inh -3, MLL AF4-AF9 inh 30*, UUG fidelity 6, ARNT-TACC3 inh 6 and S100A4 MyoIIA -82.

(more compounds)
Screening CCCNC(=O)N[C@@H]1C=C[C@@H](CC(=O)NC2CCCCC2)O[C@H]1CO returned ERAP1 HTS inh 1, MLL AF4-AF9 inh -1, UUG fidelity 2, ARNT-TACC3 inh 3, E-selectin induc 0 and S100A4 MyoIIA -11.
For CC=Cc1ccc2n(c1=O)C[C@H]1[C@H](CO)[C@@H](C(=O)NCCC)[C@@H]2N1CC1CC1 (mixture of isomers) the results were ERAP1 HTS inh -2, MLL AF4-AF9 inh -1, UUG fidelity 6, ARNT-TACC3 inh 2, E-selectin induc 1 and S100A4 MyoIIA 3.
`CCOc1ccccc1N(CC(=O)NCCOC)C(=O)CCC(=O)Nc1ccccn1` gave ERAP1 HTS inh 5, MLL AF4-AF9 inh 0, UUG fidelity -8, ARNT-TACC3 inh -2 and S100A4 MyoIIA 6.
COCCNC(=O)CN(C(=O)CCC(=O)Nc1ccccn1)c1cc(C)ccc1C was read as ERAP1 HTS inh -1, MLL AF4-AF9 inh 26*, UUG fidelity -11, ARNT-TACC3 inh -2, E-selectin induc 0 and S100A4 MyoIIA -5.
For COCC(=O)Nc1ccc2c(c1)OC[C@@H](C)N(C(=O)Nc1ccccc1F)C[C@@H](C)[C@H](OC)CN(C)C2=O the results were ARNT-TACC3 inh -3 and E-selectin induc 0.
Screening CO[C@H]1CN(C)C(=O)c2ccc(NC(=O)C3CCCC3)cc2OC[C@@H](C)N(C(C)=O)C[C@H]1C returned ERAP1 HTS inh 2, MLL AF4-AF9 inh 2, UUG fidelity 18, ARNT-TACC3 inh -1, E-selectin induc 0 and S100A4 MyoIIA 4.
For CC(C)NC(=O)N(C)C[C@@H]1Oc2cc(C#CC3CC3)ccc2S(=O)(=O)N([C@@H](C)CO)C[C@H]1C the results were ERAP1 HTS inh -4, MLL AF4-AF9 inh -3, UUG fidelity 7, ARNT-TACC3 inh -4, E-selectin induc 0 and S100A4 MyoIIA -13.
Screening Cn1c(-c2ccccc2)cnc1N returned UUG fidelity -3, ARNT-TACC3 inh 58* and E-selectin induc 4.
COc1ccc(-c2cnc(N)n2C)cc1 was read as ERAP1 HTS inh -2, MLL AF4-AF9 inh 11, UUG fidelity -14, ARNT-TACC3 inh 69*, E-selectin induc -2 and S100A4 MyoIIA -4.
Screening COCCn1c(-c2ccccc2)nc2ccccc21 returned UUG fidelity -5, ARNT-TACC3 inh -13 and E-selectin induc 0.
Screening COCCn1c(-c2ccccc2)cnc1N returned UUG fidelity -38 and ARNT-TACC3 inh 51*.
`C/C=C/c1ccc2c(c1)O[C@@H](CN(C)C(=O)C1CC1)[C@H](C)CN([C@H](C)CO)S2(=O)=O` gave UUG fidelity -12 and E-selectin induc 0.
Screening O=C1SC(c2ccccc2)=C/C1=C\N1CCCCC1 returned ERAP1 HTS inh 1, MLL AF4-AF9 inh 30*, UUG fidelity -11, ARNT-TACC3 inh -5 and S100A4 MyoIIA -3.
